Experimental data from publication PMC9067401 (Genes & Development, 2022).

Target: histone H4([…]), yeast (yeast)
Assay: crystal structure

B1: Aspergillus fumigatus Asf1 conserved core (AfAsf1, residues 1–154) (domain or fragment)
chain: MSVVSLLGVKIVNNPAPFLAPYQFEITFECLEQLQKDLEWKLTYVGSATSSEYDQELDSLLVGPIPVGVNKFLFEADAPDLKRIPTSEILGVTVILLTCSYDGREFVRVGYYVNNEYDSEELTQDPPAKPIIERIRRNILAEKPRVTRFAIKWD
binding result: binds
